Eight compounds from patent publication US10155727B2, “Pyrazoles” (Janssen Pharmaceuticals, Inc., priority 2014, dated 2018) can be followed below.

By UniProt entry, the sequences of proteins in these tests, tags left out. Where a name states a change or a piece, a line headed by the entry shows the natural chain unless it says otherwise. Residues count along the entry.
UniProt Q12809: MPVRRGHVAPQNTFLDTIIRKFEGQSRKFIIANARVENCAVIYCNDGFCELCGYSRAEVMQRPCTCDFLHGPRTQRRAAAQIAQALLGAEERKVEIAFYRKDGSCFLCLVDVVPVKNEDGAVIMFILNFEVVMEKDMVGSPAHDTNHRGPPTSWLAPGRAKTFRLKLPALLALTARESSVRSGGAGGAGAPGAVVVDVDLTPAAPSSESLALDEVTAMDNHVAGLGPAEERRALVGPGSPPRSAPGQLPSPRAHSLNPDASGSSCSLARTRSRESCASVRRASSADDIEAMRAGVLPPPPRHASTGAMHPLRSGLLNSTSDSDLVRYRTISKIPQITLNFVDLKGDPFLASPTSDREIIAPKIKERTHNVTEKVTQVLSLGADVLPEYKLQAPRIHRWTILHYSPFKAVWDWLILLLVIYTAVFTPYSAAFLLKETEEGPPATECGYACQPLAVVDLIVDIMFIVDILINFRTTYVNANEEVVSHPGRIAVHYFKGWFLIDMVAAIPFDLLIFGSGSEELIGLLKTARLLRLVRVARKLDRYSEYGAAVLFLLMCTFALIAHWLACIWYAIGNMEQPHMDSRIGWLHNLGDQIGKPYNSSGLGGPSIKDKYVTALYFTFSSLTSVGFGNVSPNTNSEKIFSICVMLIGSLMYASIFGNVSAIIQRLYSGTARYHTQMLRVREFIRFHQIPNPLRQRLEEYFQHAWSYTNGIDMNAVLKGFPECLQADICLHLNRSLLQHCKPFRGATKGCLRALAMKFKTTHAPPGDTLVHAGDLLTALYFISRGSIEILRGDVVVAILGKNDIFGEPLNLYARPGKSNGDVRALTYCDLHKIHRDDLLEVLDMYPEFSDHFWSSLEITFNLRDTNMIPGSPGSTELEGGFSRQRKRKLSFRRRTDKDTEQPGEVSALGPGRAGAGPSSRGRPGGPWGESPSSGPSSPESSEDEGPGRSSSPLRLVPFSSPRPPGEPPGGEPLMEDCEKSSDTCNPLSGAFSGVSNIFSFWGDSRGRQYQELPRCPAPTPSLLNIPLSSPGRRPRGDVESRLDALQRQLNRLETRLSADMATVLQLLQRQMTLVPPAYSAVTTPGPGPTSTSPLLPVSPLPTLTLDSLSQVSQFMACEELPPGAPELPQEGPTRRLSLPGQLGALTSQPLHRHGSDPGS
UniProt Q00960, 27-1482: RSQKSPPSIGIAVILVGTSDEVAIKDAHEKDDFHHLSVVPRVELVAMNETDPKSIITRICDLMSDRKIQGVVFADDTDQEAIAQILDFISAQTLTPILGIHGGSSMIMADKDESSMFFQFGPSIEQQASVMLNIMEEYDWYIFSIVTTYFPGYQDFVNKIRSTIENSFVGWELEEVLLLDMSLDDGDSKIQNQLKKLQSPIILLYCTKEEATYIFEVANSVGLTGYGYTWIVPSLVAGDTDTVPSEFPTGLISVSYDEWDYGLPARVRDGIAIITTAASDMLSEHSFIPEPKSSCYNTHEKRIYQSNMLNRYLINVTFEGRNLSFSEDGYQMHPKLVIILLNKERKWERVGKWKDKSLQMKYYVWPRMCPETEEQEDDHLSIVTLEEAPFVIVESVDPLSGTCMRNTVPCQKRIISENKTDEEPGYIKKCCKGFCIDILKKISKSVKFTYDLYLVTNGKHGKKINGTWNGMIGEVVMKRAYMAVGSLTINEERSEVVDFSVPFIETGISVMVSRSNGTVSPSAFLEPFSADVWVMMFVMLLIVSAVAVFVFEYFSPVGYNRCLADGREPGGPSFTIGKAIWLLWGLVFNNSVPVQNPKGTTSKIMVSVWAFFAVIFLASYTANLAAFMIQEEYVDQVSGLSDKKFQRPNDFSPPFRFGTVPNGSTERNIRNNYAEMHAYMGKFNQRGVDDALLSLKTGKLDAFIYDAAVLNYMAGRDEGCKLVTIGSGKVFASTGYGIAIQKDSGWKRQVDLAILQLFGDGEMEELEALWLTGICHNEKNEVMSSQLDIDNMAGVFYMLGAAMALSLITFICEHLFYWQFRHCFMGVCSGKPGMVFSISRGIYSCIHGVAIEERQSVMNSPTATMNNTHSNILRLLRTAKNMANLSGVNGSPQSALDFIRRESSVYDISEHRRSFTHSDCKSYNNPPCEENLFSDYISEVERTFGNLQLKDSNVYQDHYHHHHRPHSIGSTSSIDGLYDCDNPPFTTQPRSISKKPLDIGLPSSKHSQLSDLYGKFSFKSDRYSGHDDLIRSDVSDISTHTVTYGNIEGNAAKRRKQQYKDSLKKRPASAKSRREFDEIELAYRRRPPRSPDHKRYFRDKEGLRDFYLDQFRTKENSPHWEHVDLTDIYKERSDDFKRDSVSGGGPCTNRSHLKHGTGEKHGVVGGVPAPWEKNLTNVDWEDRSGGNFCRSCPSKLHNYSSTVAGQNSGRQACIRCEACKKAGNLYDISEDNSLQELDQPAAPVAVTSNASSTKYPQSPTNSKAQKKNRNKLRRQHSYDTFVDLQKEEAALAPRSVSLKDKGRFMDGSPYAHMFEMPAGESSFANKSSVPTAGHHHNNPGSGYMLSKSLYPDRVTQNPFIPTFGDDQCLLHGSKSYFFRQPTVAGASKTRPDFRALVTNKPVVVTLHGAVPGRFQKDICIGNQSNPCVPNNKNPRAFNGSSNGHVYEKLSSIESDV

Each structure is given as a SMILES string.

One may read the IC50 as the concentration that inhibits the measured activity by half.

The target in the first assay is hERG receptor (Homo sapiens (Human), UniProt Q12809). Nature of the assay: HERGBD: inhibition of specific [3H]-Dofetilide binding to the hERG receptor.
Conditions: not given
As for the experimental part: Inhibition of Specific Binding to the hERG—Receptor (HERGBD)
A HEK cell line with stable transfected human ERG receptor was used for the assay. The cells were grown adherently and maintained in DULBECCOS' MEM medium with 10% FBS, 1% non-essential amino acids, 1% Penicillin/Streptomycin and 400 μg/ml G418 (Calbiochem).
For binding assays and membrane preparations the cell culture medium was removed, cells were washed with PBS. Crude membranes for radioligand binding experiments were prepared by scraping the cells off the dishes in ice cold 20 mM HEPES/0.1 mM KCl/pH 7.2. The cell suspension was homogenized on ice (Ultra turrax, 3×20 sec.) and the homogenate was spun for 10 min (1° C., 1000 g, OPTIMA, SW28, 2800 U/min). The supernatant was than centrifuged for 40 min at 100000 g (1° C., OPTIMA, SW28, 23000 U/min). The membrane pellet was re-suspended in 20 mM HEPES/0.1 mM KCl pH 7.2, frozen and stored at −80° C.
After thawing on the day of the assay, the membrane suspension was diluted further with 20 mM HEPES/0.1 mM KCl/pH 7.2.
The incubation mixture of 200 μl contained 1.5 nmol/l 3H-Dofetilide, optimized amount of membrane preparation, 20 mM HEPES/0.1 mM KCl/(pH 7.2) and inhibitor in 1% DMSO. Nonspecific binding was estimated in the presence of […] Dofetilide. The samples were incubated for 90 min. at RT.
Binding was terminated by filtration of the incubated membrane preparations using Filtermat B (Pharmacia, Uppsala Sweden) and a Micro Cell Harvester (Skatron, Lier, Norway). The Filtermat B had been presoaked with 1% polyethylen imine and carefully washed with 0.05 M Tris/HCl-buffer pH=7.7 after the filtration to separate free and bound radioactivity. The filters were counted in a scintillation counter (Betaplate 1205, Berthold, Wildbad, Germany) in order to determine the specific binding of [^3H]-Dofetilide.
The optimal amount of membrane preparation in the assay was determined and optimized for each membrane preparation separately in front of using the membranes in compound testing.
For pipetting of the incubation mixture we routinely use the robot Biomek2000 (Fa. Beckman).
Turning to `FC(F)Oc1cc(-c2cnn(Cc3cc[nH]n3)c2)ccc1Cl` [Example 6], the IC50 stood at 9.56 µM.
Turning to `Cc1cc(Cn2cc(-c3cccc(OC(F)(F)F)c3)cn2)n(C)n1` [Example 22, 1,3-dimethyl-5-[[4-[3-(trifluoromethoxy)phenyl]pyrazol-1-yl]methyl] pyrazole Succinate], the IC50 was determined as 22.6 µM.
As to `Cc1n[nH]c(C)c1CCn1cc(-c2ccc(Cl)c(C(F)F)c2)cn1` [Example 27, 4-[2-[4-[4-Chloro-3-(difluoromethyl)phenyl]pyrazol-1-yl]ethyl]-3,5-dimethyl-1H-pyrazole], the IC50 came out at 35.1 µM.
In the case of `Cc1cc(Cn2cc(-c3ccc(Cl)c(C)c3)cn2)n(C)n1` [Example 57, 5-[[4-(4-chloro-3-methyl-phenyl)pyrazol-1-yl]methyl]-1,3-dimethyl-pyrazole Succinate], the half-maximal inhibitory concentration (IC50) stood at 126 µM.
Still for that read-out and setting: next, `Cc1cc(Cn2cc(-c3ccc(Cl)cc3Cl)cn2)n(C)n1` [Example 65, 5-[[4-(2,4-dichlorophenyl)pyrazol-1-yl]methyl]-1,3-dimethyl-pyrazole]: 40.4 µM; `CCn1cncc1Cn1cc(-c2ccc(F)c(C)c2)cn1` [Example 96, 4-(4-fluoro-3-methylphenyl)-1-((1-ethyl-1H-imidazol-5-yl)methyl)-1H-pyrazole]: 7.96 µM.

The assay is the same for the next values; noted with them: [3H]-Dofetilide binding, membranes of HEK cells with human ERG receptor; read-out: IC50.
In the case of `Cc1n[nH]c(C)c1CCn1cc(-c2ccc(Cl)c(OC(F)F)c2)cn1` [Example 1, 4-[2-[4-[4-chloro-3-(difluoromethoxy)phenyl]pyrazol-1-yl]ethyl]-3,5-dimethyl-1H-pyrazole], the IC50 stood at 12.8 µM.
Same read-out and setting: the figure for `FC(F)c1cc(Cl)cc(-c2cnn(Cc3cc[nH]n3)c2)c1` [Example 28, 4-[3-chloro-5-(difluoromethyl)phenyl]-1-(1H-pyrazol-3-ylmethyl)pyrazole] is 54.6 µM.

The target in the next assay is rat NR1/NR2B receptor (Rattus norvegicus (Rat), UniProt P35439+Q00960). Nature of the assay: NR2B binding assay: inhibition of specific [3H]-Ifenprodil binding to the rat NR1/NR2B receptor. The settings on record: rat brain membranes. As for the experimental part: Biological Assays Inhibition of Specific Binding to the Rat NR1/NR2B Receptor
Male Wistar rats (180 to 200 g) were killed by suffocation in a CO2 chamber for two minutes. Whole brains without cerebellum were removed and dissected on ice, placed into closed vials and stored at −70° C.
Membrane fractions were prepared and tested using standard techniques. At the time of the assay, 1 g of the brains was placed into 25 ml of 50 mM Tris/10 mM EDTA buffer, pH 7.1, (25 vol. per g of original tissue) and homogenized for 30 sec at 20000 rpm with an Ultraturrax T25 (Jahnke & Kunkel, IKA-Labortechnik, Staufen, Germany).
The supernatant was discarded and the pellet was homogenized on ice for 30 sec at 20000 rpm with an Ultraturrax and again centrifuged at 48000 g for 30 minutes at 4° C. […]
The incubation was terminated by filtration of the membrane preparations using Filtermat B (Pharmacia, Uppsala Sweden) and a Micro Cell Harvester (Skatron, Lier, Norway). The Filtermat B had been presoaked with 1% polyethylene imine and carefully washed with 50 mM Tris/HCl-buffer pH 7.7 after the filtration to separate free and bound radioactivity.
The optimal amount of membrane preparation in the assay was determined and optimized for each membrane preparation separately before the test. […]
For the compound `FC(F)Oc1cc(-c2cnn(Cc3cc[nH]n3)c2)ccc1Cl` [Example 6], the IC50 came to 0.00521 µM.
